Assay results as given in patent EP2608671B1, “COMPOUNDS FOR TREATMENT OF CANCER” (Gtx, Inc., priority 2010, dated 2012).

Columns and labels:
A375 cells = assay: Cell cycle analysis (G2/M arrest), flow cytometry; type: cell-based, human
[1] = tested on: PC-3 prostate tumor xenograft; assay: In vivo antitumor efficacy, PC-3 xenograft; parameters: species or system mouse; settings: for TGI (%): PC-3 xenograft, day 1 and 9, end point day 19
PC-3/TxR = type: cell-based, human; settings: IC50 in PC-3/TxR compared with PC-3

COc1cc2c(c(OC)c1OC)-c1ccc(OC)c(=O)cc1[C@@H](NC(C)=O)CC2 [Colchicine, reference compound]
concentration from which most cells are arrested in the G2/M phase (A375 cells): 50 nM

CC(=O)O[C@@]12CO[C@@H]1C[C@H](O)[C@@]1(C)C(=O)[C@H](O)C3=C(C)[C@@H](OC(=O)[C@H](O)[C@@H](NC(=O)OC(C)(C)C)c4ccccc4)C[C@@](O)([C@@H](OC(=O)c4ccccc4)[C@H]21)C3(C)C [Docetaxel, reference compound]
tumor growth inhibition (TGI) ([1]; PC-3 tumors, 20 mg/kg i.v.): > 100%
TGI (%) ([1]; IV 10mpk): 84%
TGI (%) ([1]; IV 20mpk): > 100%

COc1cc(C(=O)c2csc(Nc3ccc4[nH]ccc4c3)n2)cc(OC)c1OC [compound 55, (2-(1H-INDOL-5-YLAMINO)THIAZOL-4-YL)(3,4,5-TRIMETHOXYPHENYL)METHANONE]
resistance factor (data in parentheses) (PC-3/TxR): 0.4
